One experiment has as its target B*1801 (Homo sapiens, UniProt P01889, A329T/A93T/A95T/C349S/D201E/D54G/D98Y/E176V/E187T/E204Q/E69T/K202T/Q94N/R155S/R180L/S121R/V306I/Y140S/Y195H/Y33H/Y91S). Description: B44 supertype peptide binding, B*1801.
The next experiment addresses B*4001(B60) (Homo sapiens, UniProt P01889, A65T/A93T/A95T/D138N/D98Y/E176V/E69K/N87E/Q56L/Q94N/R180L/S121R/S35A/S48T/T167S/V36M/W171L/Y33H/Y91S). In words: B44 supertype peptide binding, B*4001. The settings on record: read-out: B* 4001.
For a further experiment, the target named is B*4002 (B61) (Homo sapiens, UniProt P01889, A65T/A93T/A95T/D138N/D201E/D98Y/E176V/E204Q/E69K/K202T/N87E/Q56L/Q94N/R180L/S48T/Y33H/Y91S). In words: B44 supertype peptide binding, B*4002. Conditions: read-out: B* 4002.
The target in a further experiment is B*4403 (Homo sapiens, UniProt P01889, A223V/A65T/A93T/A95T/D201E/D98Y/E176V/E187L/E204Q/E69K/G107R/H137Y/K202T/L105A/L119I/N104T/N87E/Q56L/Q94N/R106L/R155S/R180L/S101N/S121R/S35A/S48T/T118I/V36M/W191S/Y140D/Y91S). In words: B44 supertype peptide binding, B*4403.
In the next experiment the target is B*4501 (Homo sapiens, UniProt P01889, A329T/A65T/A93T/A95T/C349S/D138N/D201E/D98Y/E176V/E187L/E204Q/E69K/H137Y/K202T/L119W/N87E/Q56L/Q94N/R155S/R180D/S121R/S35A/S48T/V127L/V306I/V36M/W191S/Y140L/Y33H/Y91S). In words: B44 supertype peptide binding, B*4501.
The next experiment addresses B*4402 (Homo sapiens, UniProt P01889, A223V/A65T/A93T/A95T/D201E/D98Y/E176V/E187L/E204Q/E69K/G107R/H137Y/K202T/L105A/L119I/N104T/N87E/Q56L/Q94N/R106L/R155S/R180D/S101N/S121R/S35A/S48T/T118I/V36M/W191S/Y140D/Y91S). Description: B44 supertype peptide binding, B*4402. Conditions: read-out: B* 4402.
Where [1] appears, read: CEA-derived B44 peptides, binding affinity, unit inferred.
The mark [2] stands for this setting: HER 2/neu-derived B44 peptides, Table 27.
Where [3] appears, read: HER 2/neu-derived B44 peptides, Table 27, read-out: B* 4501.
Where [4] appears, read: HER 2/neu-derived B44 peptides, Table 27, read-out: B* 4403.
Setting [5] is: Table 29: MAGE2-derived B44 peptides.
Where [6] appears, read: Table 29: MAGE2-derived B44 peptides, read-out: B* 4501.

Like-named read-outs stand apart in the source and are kept apart here.

We go through 18 compounds from patent EP1903056A2, “HLA-A1, -A2 -A3, -A24, -B7, and -B44 tumor associated antigen peptides and compositions” (priority 2002, dated 2004).

As to `CC[C@H](C)[C@H](NC(=O)[C@H](CCC(=O)O)NC(=O)[C@@H]1CCCN1C(=O)[C@H](CCC(=O)O)NC(=O)[C@@H](N)CS)C(=O)N[C@@H](CCC(N)=O)C(=O)N[C@@H](CC(N)=O)C(=O)N[C@H](C(=O)N[C@H](C(=O)O)[C@@H](C)O)[C@@H](C)O` [compound 407], the IC50 on B*1801 (setting [1]) stood at 8.58 µM; at B*4001(B60) (setting [1]), 10.1 µM; on B*4002 (B61) (setting [1]), 1.45 µM.

Regarding `CSCC[C@H](N)C(=O)N[C@@H](CCC(=O)O)C(=O)N[C@@H](CC(C)C)C(=O)N[C@@H](C)C(=O)N[C@@H](C)C(=O)N[C@@H](CC(C)C)C(=O)N[C@@H](CS)C(=O)N[C@@H](CCCNC(=N)N)C(=O)N[C@@H](Cc1c[nH]c2ccccc12)C(=O)NCC(=O)O` [compound 472], the results for the IC50 at B*1801 (setting [2]), at B*4001(B60) (setting [2]) and on B*4002 (B61) (setting [2]) were 0.102 µM, 8.68 µM and 1.84 µM, respectively.

As to `CC[C@H](C)[C@H](NC(=O)[C@H](CC(C)C)NC(=O)[C@@H](NC(=O)CNC(=O)CNC(=O)[C@H](CCCCN)NC(=O)[C@H](CC(C)C)NC(=O)[C@@H](NC(=O)[C@H](CCC(=O)O)NC(=O)[C@@H](N)[C@@H](C)O)[C@@H](C)CC)C(C)C)C(=O)O` [compound 477], the IC50 was determined as 1.02 µM at B*1801 (setting [2]), 0.241 µM at B*4001(B60) (setting [2]) and 0.294 µM on B*4002 (B61) (setting [2]).

Consider `CC(C)[C@H](NC(=O)[C@H](CS)NC(=O)[C@H](CO)NC(=O)[C@H](C)NC(=O)CNC(=O)[C@H](Cc1ccccc1)NC(=O)[C@@H](NC(=O)[C@H](Cc1ccc(O)cc1)NC(=O)[C@H](CCCNC(=N)N)NC(=O)CNC(=O)[C@H](CCC(=O)O)NC(=O)[C@@H]1CCCN1)[C@@H](C)O)C(=O)O` [compound 480], for which the figures for the IC50 on B*4403 and at B*4501 were 0.348 µM and 0.356 µM, respectively.

Take `CC[C@H](C)[C@H](NC(=O)[C@H](CCC(=O)O)NC(=O)[C@@H](N)CCCCN)C(=O)N[C@@H](CC(C)C)C(=O)N[C@@H](CC(=O)O)C(=O)N[C@@H](CCC(=O)O)C(=O)N[C@@H](C)C(=O)N[C@@H](Cc1ccc(O)cc1)C(=O)N[C@H](C(=O)N[C@@H](CCSC)C(=O)N[C@@H](C)C(=O)O)C(C)C` [compound 490]: the IC50 came to 0.731 µM on B*1801 (setting [2]), 0.252 µM on B*4001(B60) (setting [2]), 0.123 µM on B*4501 (setting [3]) and 11.5 µM on B*4402 (setting [2]).

Take `CSCC[C@H](NC(=O)[C@@H](NC(=O)[C@H](Cc1ccc(O)cc1)NC(=O)[C@H](C)NC(=O)[C@H](CCC(=O)O)NC(=O)[C@@H](N)CC(=O)O)C(C)C)C(=O)N[C@@H](C)C(=O)NCC(=O)N[C@H](C(=O)NCC(=O)O)C(C)C` [compound 491]: the IC50 on B*4001(B60) (setting [2]) was 0.203 µM; at B*4403 (setting [4]), 5.61 µM; at B*4501 (setting [3]), 0.218 µM.

Consider `CC(C)C[C@H](NC(=O)[C@@H]1CCCN1C(=O)[C@H](CO)NC(=O)[C@H](CCCNC(=N)N)NC(=O)[C@@H]1CCCN1C(=O)[C@H](C)NC(=O)[C@H](CCC(=O)O)NC(=O)[C@@H](N)CCC(=O)O)C(=O)N[C@@H](C)C(=O)O` [compound 499], for which the results for the IC50 on B*4001(B60) (setting [2]) and at B*4403 (setting [4]) were 10.7 µM and 0.294 µM, respectively.

As for `CC(C)C[C@H](NC(=O)[C@@H](NC(=O)[C@H](CCCCN)NC(=O)[C@@H](NC(=O)[C@H](CCCCN)NC(=O)[C@H](CCCNC(=N)N)NC(=O)[C@H](CC(C)C)NC(=O)[C@H](CCC(=O)O)NC(=O)[C@@H](N)[C@@H](C)O)C(C)C)C(C)C)C(=O)O` [compound 532], at B*4403 (setting [4]), the IC50 was found to be 0.0025 µM.

As for `CC(C)C[C@H](NC(=O)[C@H](CC(=O)O)NC(=O)[C@H](CCCNC(=N)N)NC(=O)[C@H](Cc1c[nH]cn1)NC(=O)[C@@H](NC(=O)[C@H](CC(C)C)NC(=O)[C@H](CCCNC(=N)N)NC(=O)[C@@H](NC(=O)[C@H](CC(=O)O)NC(=O)[C@H](CCC(=O)O)NC(=O)[C@@H](N)CC(C)C)C(C)C)C(C)C)C(=O)O` [compound 533], the IC50 on B*1801 (setting [2]) came to 0.729 µM; on B*4501 (setting [3]), 2.38 µM; at B*4002 (B61) (setting [2]) it was 0.641 µM; on B*4402 (setting [2]), 0.818 µM.

In the case of `CC[C@H](C)[C@H](NC(=O)[C@H](CO)NC(=O)[C@H](CCC(=O)O)NC(=O)[C@@H](N)CC(C)C)C(=O)N[C@@H](CC(C)C)C(=O)N[C@@H](CCCNC(=N)N)C(=O)N[C@@H](CCCNC(=N)N)C(=O)N[C@@H](CCCNC(=N)N)C(=O)N[C@@H](Cc1ccccc1)C(=O)N[C@H](C(=O)O)[C@@H](C)O` [compound 535], on B*4403 (setting [4]), the IC50 is 0.657 µM.

Consider `CSCC[C@H](NC(=O)[C@H](CC(=O)O)NC(=O)[C@H](CC(C)C)NC(=O)[C@H](Cc1c[nH]cn1)NC(=O)[C@@H](NC(=O)[C@H](CCC(=O)O)NC(=O)[C@@H]1CCCN1)[C@@H](C)O)C(=O)N[C@@H](CC(C)C)C(=O)O` [compound 542], for which the IC50 at B*1801 (setting [2]) came to 1.95 µM; on B*4001(B60) (setting [2]) it was 8.39 µM; at B*4002 (B61) (setting [2]), 6.12 µM.

On to `CC[C@H](C)[C@H](NC(=O)[C@H](CCC(=O)O)NC(=O)[C@H](CCC(=O)O)NC(=O)[C@H](CC(C)C)NC(=O)[C@@H](NC(=O)[C@H](CCC(=O)O)NC(=O)[C@@H](N)Cc1ccccc1)[C@@H](C)O)C(=O)N[C@H](C(=O)NCC(=O)N[C@@H](Cc1ccc(O)cc1)C(=O)O)[C@@H](C)O` [compound 552], for which the IC50 on B*4403 (setting [4]) came out at 1.68 µM.

For `CSCC[C@H](NC(=O)[C@H](C)NC(=O)CNC(=O)[C@H](CO)NC(=O)[C@@H]1CCCN1C(=O)[C@@H](NC(=O)[C@H](CC(C)C)NC(=O)[C@@H]1CCCN1C(=O)[C@H](CCC(=O)O)NC(=O)[C@@H](N)C(C)C)[C@@H](C)O)C(=O)O` [compound 559], the IC50 on B*1801 (setting [2]) was 4.65 µM; on B*4002 (B61) (setting [2]), 0.584 µM; at B*4402 (setting [2]) it was 4.37 µM.

Consider `CC(C)C[C@H](NC(=O)[C@@H](NC(=O)[C@H](CCCCN)NC(=O)[C@@H](NC(=O)[C@H](CCCCN)NC(=O)[C@H](CCCNC(=N)N)NC(=O)[C@H](CC(C)C)NC(=O)[C@H](CCC(=O)O)NC(=O)[C@@H](NC(=O)[C@H](CCC(=O)O)NC(=O)[C@@H](N)CCCCN)[C@@H](C)O)C(C)C)C(C)C)C(=O)O` [compound 560], for which the IC50 worked out at 9.53 µM on B*1801 (setting [2]), 12.2 µM at B*4501 (setting [3]), 1.87 µM on B*4002 (B61) (setting [2]) and 7.14 µM on B*4402 (setting [2]).

Turning to `CC(C)C[C@H](NC(=O)[C@H](CCC(=O)O)NC(=O)[C@@H](N)[C@@H](C)O)C(=O)N[C@@H](CCCNC(=N)N)C(=O)N[C@@H](CCCCN)C(=O)N[C@H](C(=O)N[C@@H](CCCCN)C(=O)N[C@H](C(=O)N[C@@H](CC(C)C)C(=O)NCC(=O)O)C(C)C)C(C)C` [compound 561], the IC50 on B*1801 (setting [2]) was determined as 0.721 µM; at B*4002 (B61) (setting [2]) it was 0.601 µM; on B*4402 (setting [2]) it was 3.65 µM.

Take `CC[C@H](C)[C@H](NC(=O)[C@H](C)NC(=O)[C@H](C)NC(=O)[C@H](CCC(N)=O)NC(=O)[C@H](Cc1ccccc1)NC(=O)[C@H](CCC(=O)O)NC(=O)[C@H](CO)NC(=O)[C@H](CCC(=O)O)NC(=O)[C@@H](N)CC(C)C)C(=O)N[C@@H](CO)C(=O)N[C@@H](CCCNC(=N)N)C(=O)N[C@@H](CCCCN)C(=O)N[C@@H](CCSC)C(=O)O` [compound 646]: the IC50 turned out to be 0.026 µM on B*1801 (setting [5]); 0.264 µM on B*4001(B60) (setting [5]); 0.102 µM on B*4501 (setting [6]); 0.046 µM at B*4002 (B61) (setting [5]); 0.427 µM at B*4402 (setting [5]).

As for `CC(C)C[C@H](NC(=O)CNC(=O)[C@H](CC(C)C)NC(=O)[C@H](C)NC(=O)[C@H](CCC(=O)O)NC(=O)CNC(=O)[C@H](CCCNC(=N)N)NC(=O)[C@H](C)NC(=O)[C@H](CCC(=O)O)NC(=O)[C@@H](N)CC(C)C)C(=O)N[C@H](C(=O)NCC(=O)N[C@@H](C)C(=O)O)C(C)C` [compound 655], the IC50 on B*1801 (setting [5]) was 0.228 µM; on B*4501 (setting [6]), 0.135 µM; at B*4402 (setting [5]), 3.89 µM.

Consider `CC(C)C[C@H](NC(=O)CNC(=O)[C@H](CCC(=O)O)NC(=O)[C@@H](N)CCC(=O)O)C(=O)N[C@@H](CCC(=O)O)C(=O)N[C@@H](C)C(=O)N[C@@H](CCCNC(=N)N)C(=O)NCC(=O)N[C@@H](CCC(=O)O)C(=O)N[C@@H](C)C(=O)O` [compound 694], for which the IC50 at B*4403 (Table 29: MAGE2-derived B44 peptides, read-out: B* 4403) came to 0.684 µM.
